Legend:
[1] = target: T1, Protein cereblon/E3 ubiquitin-protein ligase Mdm2 (Homo sapiens) (UniProt Q00987+Q96SW2); assay: PROTAC activity at CRBN/MDM2 in human RS4-11 cells harbouring wildtype p53 assessed as decrease in MDM2 protein level at 30 nM incubated for 2 hrs by Western blot analysis; format: cell-based
[2] = target: T1, Protein cereblon/E3 ubiquitin-protein ligase Mdm2 (Homo sapiens); assay: PROTAC activity at CRBN/MDM2 in human RS4-11 cells harbouring wildtype p53 assessed as decrease in MDM2 protein level at 10 nM incubated for 2 hrs by Western blot analysis; format: cell-based
[3] = target: T1, Protein cereblon/E3 ubiquitin-protein ligase Mdm2 (Homo sapiens); assay: PROTAC activity at CRBN/MDM2 in human RS4-11 cells harbouring wildtype p53 assessed as decrease in MDM2 protein level at 3 nM incubated for 2 hrs by Western blot analysis; format: cell-based
[4] = target: T1, Protein cereblon/E3 ubiquitin-protein ligase Mdm2 (Homo sapiens); assay: PROTAC activity at CRBN/MDM2 in human RS4-11 cells harbouring wildtype p53 assessed as upregulation of p53 mRNA expression by measuring fold change at 0.03 to 0.1 uM incubated for 6 hrs by qRT-PCR analysis relative to MI-1061; format: cell-based; conditions: dose 0.03-0.1 µM
[5] = target: T1, Protein cereblon/E3 ubiquitin-protein ligase Mdm2 (Homo sapiens); assay: PROTAC activity at CRBN/MDM2 in human MV4-11 cells assessed as fold increase in p53 accumulation at 3 nM incubated for 2 hrs by Western blot analysis; format: cell-based
[6] = target: T1, Protein cereblon/E3 ubiquitin-protein ligase Mdm2 (Homo sapiens); assay: In vivo PROTAC activity at CRBN/MDM2 in human RS4-11 cells xenografted in mouse assessed as fold change in MDM2 protein level in tumor at 25 mg/kg, iv administered as single dose and measured after 24 hrs by Western blot analysis; format: functional, organism-based
[7] = target: T1, Protein cereblon/E3 ubiquitin-protein ligase Mdm2 (Homo sapiens); assay: PROTAC activity at CRBN/MDM2 in human RS4-11 cells harbouring wildtype p53 assessed as fold change in p53 accumulation at 30 nM preincubated with MG-132 for 4 hrs followed by compound treatment and measured after 2 hrs by Western blot analysis; format: cell-based
[8] = target: T1, Protein cereblon/E3 ubiquitin-protein ligase Mdm2 (Homo sapiens); assay: In vivo PROTAC activity at CRBN/MDM2 in human RS4-11 cells xenografted in mouse assessed as fold change in p21 protein level in tumor at 25 mg/kg, iv administered as single dose and measured after 3 hrs by Western blot analysis; format: functional, organism-based
[9] = target: T1, Protein cereblon/E3 ubiquitin-protein ligase Mdm2 (Homo sapiens); assay: In vivo PROTAC activity at CRBN/MDM2 in human RS4-11 cells xenografted in mouse assessed as fold change in MDM2 protein level in tumor at 25 mg/kg, iv administered as single dose and measured after 3 hrs by Western blot analysis; format: functional, organism-based
[10] = target: T1, Protein cereblon/E3 ubiquitin-protein ligase Mdm2 (Homo sapiens); assay: PROTAC activity at CRBN/MDM2 in human MV4-11 cells assessed as fold change in p53 accumulation by Western blot analysis relative to MI-1061; format: cell-based
[11] = target: T1, Protein cereblon/E3 ubiquitin-protein ligase Mdm2 (Homo sapiens); assay: In vivo PROTAC activity at CRBN/MDM2 in human RS4-11 cells xenografted in mouse assessed as fold change in p53 protein level in tumor at 25 mg/kg, iv administered as single dose and measured after 24 hrs by Western blot analysis; format: functional, organism-based
[12] = target: T1, Protein cereblon/E3 ubiquitin-protein ligase Mdm2 (Homo sapiens); assay: PROTAC activity at CRBN/MDM2 in human MV4-11 cells assessed as fold increase in p53 accumulation at 1 nM incubated for 2 hrs by Western blot analysis; format: cell-based
[13] = target: T1, Protein cereblon/E3 ubiquitin-protein ligase Mdm2 (Homo sapiens); assay: In vivo PROTAC activity at CRBN/MDM2 in human RS4-11 cells xenografted in mouse assessed as fold change in p53 protein level in tumor at 25 mg/kg, iv administered as single dose and measured after 3 hrs by Western blot analysis; format: functional, organism-based
[14] = target: T1, Protein cereblon/E3 ubiquitin-protein ligase Mdm2 (Homo sapiens); assay: PROTAC activity at CRBN/MDM2 in human RS4-11 cells harbouring wildtype p53 assessed as fold decrease in MDM2 protein level at 30 nM preincubated with PR-171 for 4 hrs followed by compound treatment and measured after 2 hrs by Western blot analysis; format: cell-based
[15] = target: T1, Protein cereblon/E3 ubiquitin-protein ligase Mdm2 (Homo sapiens); assay: PROTAC activity at CRBN/MDM2 in human RS4-11 cells harbouring wildtype p53 assessed as increase in p53 accumulation at 3 nM incubated for 2 hrs by Western blot analysis; format: cell-based
[16] = target: T1, Protein cereblon/E3 ubiquitin-protein ligase Mdm2 (Homo sapiens); assay: PROTAC activity at CRBN/MDM2 in human MV4-11 cells assessed as fold increase in p53 accumulation at 30 nM incubated for 2 hrs by Western blot analysis; format: cell-based
[17] = target: T1, Protein cereblon/E3 ubiquitin-protein ligase Mdm2 (Homo sapiens); assay: PROTAC activity at CRBN/MDM2 in human RS4-11 cells harbouring wildtype p53 assessed as upregulation of PUMA mRNA expression by measuring fold change at 0.03 to 0.1 uM incubated for 6 hrs by qRT-PCR analysis relative to MI-1061; format: cell-based; conditions: dose 0.03-0.1 µM
[18] = target: T1, Protein cereblon/E3 ubiquitin-protein ligase Mdm2 (Homo sapiens); assay: In vivo PROTAC activity at CRBN/MDM2 in human RS4-11 cells xenografted in mouse assessed as fold change in p21 protein level in tumor at 25 mg/kg, iv administered as single dose and measured after 6 hrs by Western blot analysis; format: functional, organism-based
[19] = target: T1, Protein cereblon/E3 ubiquitin-protein ligase Mdm2 (Homo sapiens); assay: PROTAC activity at CRBN/MDM2 in human RS4-11 cells harbouring wildtype p53 assessed as fold decrease in MDM2 protein level at 30 nM preincubated with MLN4924 for 4 hrs followed by compound treatment and measured after 2 hrs by Western blot analysis; format: cell-based
[20] = target: T1, Protein cereblon/E3 ubiquitin-protein ligase Mdm2 (Homo sapiens); assay: PROTAC activity at CRBN/MDM2 in human RS4-11 cells harbouring wildtype p53 assessed as upregulation of MDM2 mRNA expression by measuring fold change at 0.03 to 0.1 uM incubated for 6 hrs by qRT-PCR analysis relative to MI-1061; format: cell-based; conditions: dose 0.03-0.1 µM
[21] = target: T1, Protein cereblon/E3 ubiquitin-protein ligase Mdm2 (Homo sapiens); assay: PROTAC activity at CRBN/MDM2 in human MV4-11 cells assessed as fold reduction in MDM2 protein at 1 nM incubated for 2 hrs by Western blot analysis; format: cell-based
[22] = target: T1, Protein cereblon/E3 ubiquitin-protein ligase Mdm2 (Homo sapiens); assay: PROTAC activity at CRBN/MDM2 in human MV4-11 cells assessed as fold reduction in MDM2 protein at 10 nM incubated for 2 hrs by Western blot analysis; format: cell-based
[23] = target: T1, Protein cereblon/E3 ubiquitin-protein ligase Mdm2 (Homo sapiens); assay: PROTAC activity at CRBN/MDM2 in human MV4-11 cells assessed as fold increase in p53 accumulation at 10 nM incubated for 2 hrs by Western blot analysis; format: cell-based
[24] = target: T1, Protein cereblon/E3 ubiquitin-protein ligase Mdm2 (Homo sapiens); assay: PROTAC activity at CRBN/MDM2 in human RS4-11 cells harbouring wildtype p53 assessed as increase in p53 accumulation at 1 nM incubated for 2 hrs by Western blot analysis; format: cell-based
[25] = target: T1, Protein cereblon/E3 ubiquitin-protein ligase Mdm2 (Homo sapiens); assay: In vivo PROTAC activity at CRBN/MDM2 in human RS4-11 cells xenografted in mouse assessed as fold change in p53 protein level in tumor at 25 mg/kg, iv administered as single dose and measured after 6 hrs by Western blot analysis; format: functional, organism-based
[26] = target: T1, Protein cereblon/E3 ubiquitin-protein ligase Mdm2 (Homo sapiens); assay: PROTAC activity at CRBN/MDM2 in human RS4-11 cells harbouring wildtype p53 assessed as fold change in p53 accumulation at 30 nM preincubated with MLN4924 for 4 hrs followed by compound treatment and measured after 2 hrs by Western blot analysis; format: cell-based
[27] = target: T1, Protein cereblon/E3 ubiquitin-protein ligase Mdm2 (Homo sapiens); assay: PROTAC activity at CRBN/MDM2 in human RS4-11 cells harbouring wildtype p53 assessed as fold increase in p53 accumulation at 0.03 uM incubated for 2 hrs in the presence of lenalidomide by Western blot analysis; format: cell-based
[28] = target: T1, Protein cereblon/E3 ubiquitin-protein ligase Mdm2 (Homo sapiens); assay: PROTAC activity at CRBN/MDM2 in human RS4-11 cells harbouring wildtype p53 assessed as fold decrease in MDM2 protein level at 30 nM preincubated with MG-132 for 4 hrs followed by compound treatment and measured after 2 hrs by Western blot analysis; format: cell-based

The chains behind the UniProt entries cited, without tags or fusion partners. Where a name states a change or a piece, a line headed by the entry shows the natural chain unless it says otherwise.
UniProt Q00987, whole entry, looked up: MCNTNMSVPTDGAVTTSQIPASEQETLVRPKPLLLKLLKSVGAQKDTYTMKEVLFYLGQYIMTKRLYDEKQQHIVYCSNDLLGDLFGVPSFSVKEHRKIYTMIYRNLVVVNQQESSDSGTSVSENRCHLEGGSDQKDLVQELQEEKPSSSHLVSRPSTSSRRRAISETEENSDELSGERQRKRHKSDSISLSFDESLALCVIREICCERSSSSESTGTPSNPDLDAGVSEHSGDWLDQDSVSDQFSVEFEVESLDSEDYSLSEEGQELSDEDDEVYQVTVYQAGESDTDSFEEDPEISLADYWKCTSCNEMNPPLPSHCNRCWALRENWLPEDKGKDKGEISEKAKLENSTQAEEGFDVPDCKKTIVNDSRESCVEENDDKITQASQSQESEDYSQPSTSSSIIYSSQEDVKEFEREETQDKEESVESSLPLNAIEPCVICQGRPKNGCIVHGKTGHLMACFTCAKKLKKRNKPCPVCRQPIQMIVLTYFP
UniProt Q96SW2: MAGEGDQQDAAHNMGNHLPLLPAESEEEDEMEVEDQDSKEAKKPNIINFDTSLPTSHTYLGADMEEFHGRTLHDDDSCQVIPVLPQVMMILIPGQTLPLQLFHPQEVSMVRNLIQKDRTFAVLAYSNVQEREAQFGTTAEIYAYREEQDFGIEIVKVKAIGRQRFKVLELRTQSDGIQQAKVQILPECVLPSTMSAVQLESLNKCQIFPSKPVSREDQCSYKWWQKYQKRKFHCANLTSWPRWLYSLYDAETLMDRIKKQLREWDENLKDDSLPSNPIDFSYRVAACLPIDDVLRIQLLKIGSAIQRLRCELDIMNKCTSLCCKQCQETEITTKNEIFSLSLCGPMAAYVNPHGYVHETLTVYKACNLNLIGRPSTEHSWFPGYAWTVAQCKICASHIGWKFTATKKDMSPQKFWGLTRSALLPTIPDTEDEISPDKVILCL

**Q.** With `O=C1CCC(N2Cc3c(C#CCCCNC(=O)c4ccc(NC(=O)[C@@H]5NC6(CCCCC6)[C@@]6(C(=O)Nc7cc(Cl)ccc76)[C@H]5c5cccc(Cl)c5F)cc4)cccc3C2=O)C(=O)N1` (stereo partly drawn) as the compound, how does the fold change (FC) [1] read?
**A.** Its fold change (FC) is 0.01.

**Q.** And the fold change (FC) [2]?
**A.** The fold change (FC) was 0.02.

**Q.** And the fold change (FC) [3]?
**A.** Its fold change (FC) is 0.05.

**Q.** What about the fold change (FC) [4] of the same compound?
**A.** Its fold change (FC) is > 10.

**Q.** What about the fold change (FC) [5] of the same compound?
**A.** The fold change (FC) was 3.6.

**Q.** What about the fold change (FC) [6] of the same compound?
**A.** Its fold change (FC) is 0.2.

**Q.** And the fold change (FC) [7]?
**A.** The fold change (FC) was 7.2.

**Q.** And the fold change (FC) [8]?
**A.** The fold change (FC) was 1.4.

**Q.** And the fold change (FC) [9]?
**A.** The fold change (FC) was 0.4.

**Q.** And the Ratio IC50 [10]?
**A.** Its Ratio IC50 is > 10.

**Q.** And the fold change (FC) [11]?
**A.** Its fold change (FC) is 2.9.

**Q.** What about the fold change (FC) [12] of the same compound?
**A.** The fold change (FC) was 2.

**Q.** What about the fold change (FC) [13] of the same compound?
**A.** The fold change (FC) was 3.3.

**Q.** And the fold change (FC) [14]?
**A.** The fold change (FC) was 3.5.

**Q.** And the fold change (FC) [15]?
**A.** Its fold change (FC) is 1.7.

**Q.** And the fold change (FC) [16]?
**A.** Its fold change (FC) is 10.2.

**Q.** What about the fold change (FC) [17] of the same compound?
**A.** Its fold change (FC) is > 10.

**Q.** What about the fold change (FC) [18] of the same compound?
**A.** Its fold change (FC) is 1.6.

**Q.** And the fold change (FC) [19]?
**A.** The fold change (FC) was 3.1.

**Q.** And the fold change (FC) [20]?
**A.** Its fold change (FC) is > 10.

**Q.** What about the fold change (FC) [21] of the same compound?
**A.** The fold change (FC) was 0.2.

**Q.** And the fold change (FC) [22]?
**A.** The fold change (FC) was 0.3.

**Q.** What about the fold change (FC) [23] of the same compound?
**A.** Its fold change (FC) is 7.7.

**Q.** And the fold change (FC) [24]?
**A.** Its fold change (FC) is 1.4.

**Q.** And the fold change (FC) [25]?
**A.** Its fold change (FC) is 2.6.

**Q.** And the fold change (FC) [26]?
**A.** The fold change (FC) was 10.3.

**Q.** What about the fold change (FC) [27] of the same compound?
**A.** The fold change (FC) was 2.5.

**Q.** And the fold change (FC) [28]?
**A.** The fold change (FC) was 3.1.
